Measured affinities in a library of Ab-14 heavy chain variants

Antigen: PDVDLGDISGINAS, a 14-residue peptide of the SARS-CoV-2 spike HR2 region.

Parent scFv Ab-14: VH joined to VL by three GGGGS repeats. Changes lie in the heavy chain CDRs alone.
VH: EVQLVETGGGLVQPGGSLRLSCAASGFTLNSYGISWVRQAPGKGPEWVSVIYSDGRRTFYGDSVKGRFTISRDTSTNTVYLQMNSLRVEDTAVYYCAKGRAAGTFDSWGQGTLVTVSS
VL: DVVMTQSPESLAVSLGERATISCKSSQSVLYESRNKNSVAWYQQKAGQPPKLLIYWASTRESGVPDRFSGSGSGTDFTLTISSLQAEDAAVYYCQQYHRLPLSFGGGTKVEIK

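The starting antibody came from a phage panning campaign against this peptide. The library (AAYL49) carries one to three amino acid substitutions per variant, with no insertions or deletions. The scFvs were displayed on barcoded MATa yeast, the peptide on MATalpha yeast. Binding brings cells together so that they mate, and sequencing counts the barcode pairs among the diploids. A regression on co-assayed BCL2-family reference pairs converts the normalised counts of each replicate to an apparent Kd. The assay was run in three technical replicates.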

Each variant's VH is given in full.
Numbers give log10(Kd / nM), so 0 is 1 nM and 3 is 1 µM. Smaller is tighter.
Averages over replicates are reported, and they cover detected replicates only.
A pair that was not seen in any replicate is written "nd"; this usually means weak binding, but a binder can also be missed.

With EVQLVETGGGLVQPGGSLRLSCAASGFTLNSYGISWVRQAPGKGPEWVSVIYVDGRRTFYGDAMKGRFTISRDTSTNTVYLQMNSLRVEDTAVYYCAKGRAAGTFDSWGQGTLVTVSS the result was 4.38 (1 of 3 replicates).
With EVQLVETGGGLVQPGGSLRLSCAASGFTLNSYGISWVRQAPGKGPEWVSVIYSDGRRTFYGDSVFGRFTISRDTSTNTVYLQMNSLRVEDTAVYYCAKGRAAGRFDSWGQGTLVTVSS the result was 2.91 (3 of 3 replicates).
With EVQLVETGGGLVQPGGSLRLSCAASGFTLNSYIISWVRQAPGKGPEWVSVIYSDGRRTFYGDSVKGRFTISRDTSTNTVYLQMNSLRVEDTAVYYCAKGRAAGGFDWWGQGTLVTVSS the result was 3.45 (1 of 3 replicates).
With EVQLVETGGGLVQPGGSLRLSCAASNFTLNSYGISWVRQAPGKGPEWVSVIYSDGRRTPYGDSVQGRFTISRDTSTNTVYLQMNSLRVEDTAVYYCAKGRAAGTFDSWGQGTLVTVSS the result was 5.21 (2 of 3 replicates).
With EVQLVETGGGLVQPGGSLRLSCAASVFTYNSYGASWVRQAPGKGPEWVSVIYSDGRRTFYGDSVKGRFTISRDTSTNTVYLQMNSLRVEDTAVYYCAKGRAAGTFDSWGQGTLVTVSS the result was nd (0 of 3 replicates).
With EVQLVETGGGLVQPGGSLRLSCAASGFTLNSYGISWVRQAPGKGPEWVSVIYSDGRRTAYGDSVKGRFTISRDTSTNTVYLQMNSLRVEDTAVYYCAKDRAIGTFDSWGQGTLVTVSS the result was 0.87 (3 of 3 replicates).
With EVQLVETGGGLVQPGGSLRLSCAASGFTLNSYGISWVRQAPGKGPEWVSVIYSDGRRYFYGDSVKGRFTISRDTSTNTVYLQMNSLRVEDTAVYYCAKGPAAGNFDSWGQGTLVTVSS the result was 4.20 (2 of 3 replicates).
With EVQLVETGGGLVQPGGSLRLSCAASGFSLNSYGISWVRQAPGKGPEWVSVIYSDGMRTFYGDSVKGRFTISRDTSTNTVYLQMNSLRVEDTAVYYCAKGRAALTFDSWGQGTLVTVSS the result was nd (0 of 3 replicates).
With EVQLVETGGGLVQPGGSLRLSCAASGFTLNSYGISWVRQAPGKGPEWVSVIYNDGHRTFYGDSVKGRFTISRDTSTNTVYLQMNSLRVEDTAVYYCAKGRAACTFDSWGQGTLVTVSS the result was nd (0 of 3 replicates).
With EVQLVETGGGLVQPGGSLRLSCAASGFTLNSYYISWVRQAPGKGPEWVSVIYSDGRRTFQGDSVKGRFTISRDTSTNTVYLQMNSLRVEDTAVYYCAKGRAAGTFMSWGQGTLVTVSS the result was nd (0 of 3 replicates).
With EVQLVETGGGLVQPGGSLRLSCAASGFTLNSRGISWVRQAPGKGPEWVSVDYSDGRRTFYGDSVKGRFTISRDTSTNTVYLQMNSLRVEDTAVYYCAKGRAAGIFDSWGQGTLVTVSS the result was 4.16 (1 of 3 replicates).
With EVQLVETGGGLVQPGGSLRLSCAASHFTLNSYGIIWVRQAPGKGPEWVSVIYSDARRTFYGDSVKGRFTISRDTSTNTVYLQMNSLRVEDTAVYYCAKGRAAGTFDSWGQGTLVTVSS the result was nd (0 of 3 replicates).
With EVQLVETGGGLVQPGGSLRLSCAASGFTLNSVGIYWVRQAPGKGPEWVSVIYSDGRRTFYGDSVCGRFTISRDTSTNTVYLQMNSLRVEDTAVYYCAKGRAAGTFDSWGQGTLVTVSS the result was nd (0 of 3 replicates).
With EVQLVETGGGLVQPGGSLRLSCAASGFFLNSLGISWVRQAPGKGPEWVSVIYSDGRRTFRGDSVKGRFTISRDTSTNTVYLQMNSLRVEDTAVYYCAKGRAAGTFDSWGQGTLVTVSS the result was nd (0 of 3 replicates).
With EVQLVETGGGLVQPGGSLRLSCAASGFFLNSYGISWVRQAPGKGPEWVSDIYSDGNRTFYGDSVKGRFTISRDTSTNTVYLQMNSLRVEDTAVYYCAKGRAAGTFDSWGQGTLVTVSS the result was nd (0 of 3 replicates).
With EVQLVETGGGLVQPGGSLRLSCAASGFTLNSYGISWVRQAPGKGPEWVSVIYSDGRRTYYGDSVNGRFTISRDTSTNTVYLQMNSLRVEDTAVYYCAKGEAAGTFDSWGQGTLVTVSS the result was 3.23 (3 of 3 replicates).
With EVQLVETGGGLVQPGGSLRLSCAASHFTLNSYGISWVRQAPGKGPEWVSVIYSDGRRTFDGDSVKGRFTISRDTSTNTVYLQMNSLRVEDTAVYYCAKGRAAGMFDSWGQGTLVTVSS the result was nd (0 of 3 replicates).
With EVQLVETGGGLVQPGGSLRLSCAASGFTLNSYGISWVRQAPGKGPEWVSVIYADGRRTFYGDSVKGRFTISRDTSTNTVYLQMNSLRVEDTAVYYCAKGRAAGTFDMWGQGTLVTVSS the result was 0.17 (3 of 3 replicates).
With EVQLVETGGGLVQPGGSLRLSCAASGFSLNSYGISWVRQAPGKGPEWVSVIYSDGRRTFEGDSVKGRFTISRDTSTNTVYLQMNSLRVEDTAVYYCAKGRAAGTFDDWGQGTLVTVSS the result was 1.74 (3 of 3 replicates).
With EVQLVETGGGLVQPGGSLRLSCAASGFPLNSMGISWVRQAPGKGPEWVSVIYSDGRRTRYGDSVKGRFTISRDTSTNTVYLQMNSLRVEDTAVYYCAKGRAAGTFDSWGQGTLVTVSS the result was nd (0 of 3 replicates).

The 2 strongest on average among those seen in every replicate, once more:

{"VH": "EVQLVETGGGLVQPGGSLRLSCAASGFTLNSYGISWVRQAPGKGPEWVSVIYADGRRTFYGDSVKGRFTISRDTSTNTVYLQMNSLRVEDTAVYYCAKGRAAGTFDMWGQGTLVTVSS", "mean log10 Kd (nM)": "0.17", "detected": "3 of 3"}
{"VH": "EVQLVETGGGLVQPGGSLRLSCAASGFTLNSYGISWVRQAPGKGPEWVSVIYSDGRRTAYGDSVKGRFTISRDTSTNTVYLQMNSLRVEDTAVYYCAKDRAIGTFDSWGQGTLVTVSS", "mean log10 Kd (nM)": "0.87", "detected": "3 of 3"}

In this assay the parent's reference entry averaged 0.65; its copy inside this library read 4.11 (one replicate of three).
As a blank, each scFv also met three strains without target: over library AAYL49, 15% of these pairings were detected, typically at 4.06 and seldom below 2.83.

Source: Engelhart et al. 2022 (doi:10.1038/s41597-022-01779-4), MIT Lincoln Laboratory and A-Alpha Bio; data file from the FLAb repository.